# Experimental data as given in patent US20240148749A1, “MNTBAP AND M(III)N-SUBSTITUTED PYRIDYLPORPHYRINS(MNPS)FOR USE IN REVERSING SEPSIS-INDUCED MICROGLIAL CELLS ALTERATIONS AND/OR FOR TREATING SEPSIS OR SEPSIS-ASSOCIATED ENCEPHALOPATHY” (priority 2021, published 2024).
# System: CLP mice
# Experiment: Survival after cecal ligation and puncture (CLP) model of sepsis
# Format: in vivo, mouse
# Description: (d) Survival curve of control and CLP mice with or without MnTBAP during time (n=10-12 per group). A log-rank (Mantel-Cox) p value for trend was calculated.
# We used peritonitis induced by CLP as a model of sepsis (Rittirsch et al., 2009). Briefly, animals were anesthetized with ketamine (Imalgene® 1000 100 mg/kg, Merial, France) and Xylazine (Rompun® 2% 20 mg/kg, Bayer, Germany) prior to surgery. After laparotomy, caecum was ligatured at the distal third with a 4.0 suture and the distal part was perforated twice with a 21 Gauge needle. […]
# Clinical score was assessed 6, 12 and 24 hours and 21 days after CLP using a modified SmithKline Beecham, Harwell, Imperial College and Royal London Hospital phenotype assessment (SHIRPA) (Rogers et al., 1997) of the maximum score of fourteen. Weight, temperature and locomotor activity using an open field box were measured at the same time points. We determined survival rate twice a day for 21 days after CLP. […] Each condition was scored from 0 to 2. […]
# At the end, two groups were compared: CLP-Placebo, CLP-BMX-010. We determined survival rate twice a day for 4 days after CLP.”
compound,measurement,setting,value
"O=C(O)c1ccc(/C2=C3\C=CC(=N3)/C(c3ccc(C(=O)O)cc3)=c3/cc/c4[n]3[Mn]([Cl])[n]3c2ccc3/C(c2ccc(C(=O)O)cc2)=C2/C=CC(=N2)\C=4c2ccc(C(=O)O)cc2)cc1 [MnTBAP, Manganese (III) tetrakis (4-benzoic acid)porphyrin chloride]",survival rate compared with placebo mice,"after CLP, MnTBAP mice",significant improvement
same,septic-mice mortality,"systemic MnTBAP treatment, FIG. 4",strongly reduced
